According to BindingDB's records for doi:10.1016/j.bmc.2005.11.005 (Wyeth Research, 2006):

Molecular target: T1, Tyrosine-protein phosphatase non-receptor type 1 [1-298] (Homo sapiens, UniProt P18031)
T1 construct: 1-298
T1 sequence (P18031 whole entry): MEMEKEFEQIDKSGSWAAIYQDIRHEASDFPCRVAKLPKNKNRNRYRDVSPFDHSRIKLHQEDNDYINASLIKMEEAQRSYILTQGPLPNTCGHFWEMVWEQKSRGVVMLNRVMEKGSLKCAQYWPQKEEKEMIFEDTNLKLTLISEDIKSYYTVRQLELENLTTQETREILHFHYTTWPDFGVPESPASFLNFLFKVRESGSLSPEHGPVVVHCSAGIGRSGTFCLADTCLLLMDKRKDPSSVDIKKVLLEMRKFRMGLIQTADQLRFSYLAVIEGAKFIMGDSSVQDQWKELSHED
Assay: Enzymatic Assay
Settings: pH 7.4; 22 °C
Protocol: The enzymatic assay was carried out at room temperature in 96-well plates. […] All the assays were carried out in duplicate or triplicate and the average results are presented. Ki is derived from IC50 based on competitive inhibition Ki = IC50 x Km/ (Km + [substrate]).

O=C(O)COc1c(C(=O)O)sc2ncccc12 [3-(carboxymethoxy)thieno[2,3-b]pyridine-2-carboxylic acid]
Ki: 230 µM
